Test results published in patent US9227956B2 (Pfizer Inc., priority 2013, dated 2016).

Test system: human PCSK9
Experiment: PCSK9 AlphaLISA assay, PCSK9 lowering in WT7 cells
Details: WT7 cells (Huh7 stably over-expressing human PCSK9); secreted PCSK9 by AlphaLISA; overnight incubation (16-24 h); top concentration 20 μM; read-out: Cell Based PCSK9 IC50
Description: An in-vitro AlphaLISA assay (Perkin Elmer) was developed in order to quantitate the level of PCSK9 secreted into the cell culture media following compound treatment. To detect and measure PCSK9 protein an in-house generated anti-PCSK9 antibody was coupled to AlphaLISA acceptor beads by an external vendor (PerkinElmer) and a second internally developed anti-PCSK9 antibody with an epiptope distinct from that of the acceptor beads was biotinylated in house. Streptavidin coated-donor beads (Perkin Elmer) are also included in the assay mixture which then binds the biotinylated anti-PCSK9 antibody and in the presence of PCSK9 this donor complex and acceptor beads are brought into close proximity. […] The ability of compound to modulate PCSK9 protein levels in conditioned media by AlphaLISA was assessed in the human hepatocellular carcinoma cell line Huh7, stably over-expressing human PCSK9. […] Following plasmid transfection the stable WT7 clone was identified and maintained under Zeocin selection. Compound screening was performed in 384-well plates where WT7 cells were plated at a density of 7500 cells per well in 20 μL of tissue culture media containing compound in an eleven point, 0.5 log dilution format at a high treatment concentration of 20 μM in a final volume of 0.5% DMSO. In additional to these test compound conditions each screening plate also included wells that contained 20 μM puromycin as a positive assay control defined as high percent effect, HPE, as well as wells containing media in 0.5% DMSO as a negative treatment control defined as zero percent effect, ZPE. After overnight compound incubation (16-24 h) the tissue culture media was collected and an aliquot from each sample was transferred to individual wells of a 384-well white Optiplate (Perkin Elmer). The coupled antibodies and donor beads were added to the assay plates in a buffer composed of 30 mM Tris pH 7.4, 0.02% Tween-20 and 0.02% Casein. Anti-PCSK9 acceptor beads (final concentration of 10 μg/mL) and anti-PCSK9 biotinylated antibody (final concentration of 3 nM) were added and incubated for 30 minutes at room temperature followed by the addition of the streptavidin donor beads (final concentration 40 μg/mL) for an additional 60 minutes. Additionally a standard curve was generated where AlphaLISA reagents were incubated in wells spiked with recombinant human PCSK9 diluted in tissue culture media from 5000 ng/mL to 0.6 ng/mL. […] The test compound data were converted into percent effect, using the ZPE and HPE controls as 0% and 100% activity, respectively. The equation used for converting each well reading into percent effect was:
[formula] IC50 was then calculated and reported as the midpoint in the percent effect curve in molar units and the values are reported under the Cell Based PCSK9 IC50 (μM) column header within Table 1 Biological Data. Additionally, to monitor the selectivity of compound response for PCSK9 the level of a second secreted protein, Transferrin, was measured from the same conditioned media treated with test compound by AlphaLISA. […] To detect and quantify effects on Transferrin 0.01 mL of the culture media was transferred to a 384-well white Optiplate and 0.01 mL of media was added to bring the volume to 0.02 ml. Anti-Transferrin acceptor beads were added to a final concentration of 10 μg/mL, biotinylated anti-Transferrin at 3 nM and streptavidin donor beads at 40 μg/mL. Percent effect and IC50 for Transferrin was computed in a similar manner as that described for PCSK9.

SMILES	IC50 [nM]
Cc1cccnc1N(C(=O)c1ccc(-c2cnn(C)c2-c2nnn(C(C)OC(=O)OC(C)C)n2)cc1)[C@@H]1CCCNC1 (single isomer, unassigned) [Example 38]	> 19400
Cc1cnc2c(c1)nnn2-c1ccc(C(=O)N(c2ncccc2Cl)[C@@H]2CCCNC2)cc1 [Example 3, N-(3-chloropyridin-2-yl)-4-(6-methyl-3H-[1,2,3]triazolo[4,5-b]pyridin-3-yl)-N-[(3R)-piperidin-3-yl]benzamide]	800
O=C(c1ccc(-n2nnc3cccnc32)cn1)N(c1ncccc1Cl)[C@@H]1CCCNC1 [Example 5, N-(3-chloropyridin-2-yl)-N-[(3R)-piperidin-3-yl]-5-(3H-[1,2,3]triazolo[4,5-b]pyridin-3-yl)pyridine-2-carboxamide]	1500
CCOC(=O)c1c(-c2ccc(C(=O)N(c3ncccc3Cl)[C@@H]3CCCNC3)cc2)cnn1C [Example 6, ethyl 4-(4-{(3-chloropyridin-2-yl)[(3R)-piperidin-3-yl]carbamoyl}phenyl)-1-methyl-1H-pyrazole-5-carboxylate]	1500
Cc1cnc2c(c1)nnn2-c1ccc(C(=O)N(c2ncccc2Cl)[C@@H]2CCCNC2)nc1 [Example 9, N-(3-chloropyridin-2-yl)-5-(6-methyl-3H-[1,2,3]triazolo[4,5-b]pyridin-3-yl)-N-[(3R)-piperidin-3-yl]pyridine-2-carboxamide]	1800
CCOC(=O)OC(C)OC(=O)c1c(-c2ccc(C(=O)N(c3nccc4ccccc34)[C@@H]3CCCNC3)cc2)cnn1C (stereo partly drawn) [Example 11, 1-[(ethoxycarbonyl)oxy]ethyl 4-(4-{isoquinolin-1-yl[(3R)-piperidin-3-yl]carbamoyl}phenyl)-1-methyl-1H-pyrazole-5-carboxylate]	11700
O=C(c1ccc(-n2nnc3cccnc32)cc1)N(c1ncccc1Cl)[C@@H]1CCCNC1 [Example 16, N-(3-chloropyridin-2-yl)-N-[(3R)-piperidin-3-yl]-4-(3H-[1,2,3]triazolo[4,5-b]pyridin-3-yl)benzamide]	800
